Test results published in patent publication US20240261425A1, “CONJUGATE AND THE PREPARING METHOD AND USE THEREOF” (Nanjing University, priority 2021, published 2024).

Test system: HER2+ cells MDA-MB-435
Assay: Tumor cell killing test, HER2+ MDA-MB-435
Assay type: cell-based
Description: Cell viability was plotted as a percentage of untreated cells. Each measurement was taken in triplicate.

| Substance | IC50 [µg/mL] |
| --- | --- |
| Herceptin-Mal-MMAE [reference compound] | 0.01203 |
| Herceptin-PhESF-PEG4-MMAE | 0.01466 |
